Test [1] addresses T1, Transient receptor potential cation channel subfamily V member 1 (Rattus norvegicus, UniProt O35433). The test is described as follows: Antagonist activity at rat TRPV1 receptor expressed in HEK293T cells assessed as inhibition of capsaicin-induced calcium flux after 30 mins by Fluo-4AM based fluorescence assay. In kind it is cell-based, HEK-293T.
Test [2] has as its target T1, Transient receptor potential cation channel subfamily V member 1. In words: Antagonist activity at rat TRPV1 receptor expressed in HEK293T cells assessed as inhibition of temperature-induced calcium flux after 30 mins by Fluo-4AM based fluorescence assay. It is filed as cell-based, HEK-293T.

Chains of the proteins cited; added tags and fusions are not shown.
UniProt O35433, whole entry: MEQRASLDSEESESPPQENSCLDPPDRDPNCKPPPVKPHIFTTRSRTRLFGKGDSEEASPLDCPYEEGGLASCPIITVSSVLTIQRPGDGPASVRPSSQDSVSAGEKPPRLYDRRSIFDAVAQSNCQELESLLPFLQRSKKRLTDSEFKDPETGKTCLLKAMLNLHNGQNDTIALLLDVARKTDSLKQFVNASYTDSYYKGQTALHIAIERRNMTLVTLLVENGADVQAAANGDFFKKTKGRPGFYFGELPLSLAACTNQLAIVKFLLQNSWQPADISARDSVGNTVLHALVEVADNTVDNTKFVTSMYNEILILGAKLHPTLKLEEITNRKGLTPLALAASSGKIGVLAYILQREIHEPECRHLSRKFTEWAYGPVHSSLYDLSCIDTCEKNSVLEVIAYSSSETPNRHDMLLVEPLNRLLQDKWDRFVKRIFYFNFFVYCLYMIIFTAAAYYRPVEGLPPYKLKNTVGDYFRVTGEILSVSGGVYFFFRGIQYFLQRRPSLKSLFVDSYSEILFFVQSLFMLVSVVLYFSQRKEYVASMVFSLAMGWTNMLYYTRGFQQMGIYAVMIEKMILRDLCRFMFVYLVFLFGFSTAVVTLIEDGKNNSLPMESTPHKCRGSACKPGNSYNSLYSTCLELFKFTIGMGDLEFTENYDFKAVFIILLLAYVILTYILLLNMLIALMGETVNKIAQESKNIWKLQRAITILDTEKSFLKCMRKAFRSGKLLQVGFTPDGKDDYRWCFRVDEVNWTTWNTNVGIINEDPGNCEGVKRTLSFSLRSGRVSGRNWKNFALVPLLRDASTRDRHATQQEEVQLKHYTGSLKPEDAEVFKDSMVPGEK

The structures appear in SMILES notation.

Regarding `CC(C)(C)c1ccc(NC(=O)N2CCN(c3ncccc3Cl)CC2)cc1`, the IC50 in test [1] was determined as 4.86 nM; in test [2] it was 2.12 nM.

Source of the values: ChEMBL document CHEMBL2413050, “Design and synthesis of conformationally restricted capsaicin analogues based in the 1, 3, 4-thiadiazole heterocycle reveal a novel family of transient receptor potential vanilloid 1 (TRPV1) antagonists” (Eur J Med Chem, 2013).
